Values quoted from earlier work in patent US20160317610A1, “COMPOSITIONS AND METHODS FOR TREATING OVARIAN CANCER INCLUDING PREVENTING THE […]” (University of Southern California, priority 2013, published 2016).

Assays:
OC xenograft = settings: IP treatment

Substance: volociximab: an α5β1-specific mAb
- animal survival (OC xenograft): increase animal survival
- tumor burden, ascites formation and number of metastatic foci (OC xenograft): significantly reduce tumor burden, ascites formation and the number of metastatic foci
- clinical efficacy (advanced OC): failed to show clinical efficacy
